Test system: HLA-B44 supertype molecules
Experiment: HLA-B44 supertype cross-binding
Set-up: species or system human
Settings: number of the six B44 supertype alleles bound

CC(C)[C@H](NC(=O)[C@H](C)NC(=O)[C@H](CCCNC(=N)N)NC(=O)[C@@H](NC(=O)[C@H](CCC(=O)O)NC(=O)[C@@H](N)CCCNC(=N)N)C(C)C)C(=O)N[C@H](C(=O)N[C@@H](CO)C(=O)N[C@@H](C)C(=O)O)[C@@H](C)O [compound 481] and CC(C)C[C@H](NC(=O)[C@@H](NC(=O)[C@H](CCCNC(=N)N)NC(=O)[C@H](CS)NC(=O)[C@H](CCC(=O)O)NC(=O)[C@H](CCC(=O)O)NC(=O)[C@@H](NC(=O)[C@H](CS)NC(=O)[C@H](CCC(=O)O)NC(=O)[C@@H](N)CCC(N)=O)C(C)C)C(C)C)C(=O)O [compound 486] are the same in Degeneracy: 4 for the first, 4 for the second.

CC[C@H](C)[C@H](NC(=O)[C@H](CCC(=O)O)NC(=O)[C@@H](N)CCC(=O)O)C(=O)N[C@H](C(=O)NCC(=O)N[C@@H](Cc1ccc(O)cc1)C(=O)N[C@@H](CC(C)C)C(=O)N[C@@H](Cc1ccc(O)cc1)C(=O)O)[C@@H](C)O [compound 483] and CC[C@H](C)[C@H](NC(=O)[C@H](Cc1ccc(O)cc1)NC(=O)[C@H](CC(C)C)NC(=O)[C@H](Cc1ccc(O)cc1)NC(=O)CNC(=O)[C@@H](NC(=O)[C@@H](NC(=O)[C@H](CCC(=O)O)NC(=O)[C@@H](N)CCC(=O)O)[C@@H](C)CC)[C@@H](C)O)C(=O)N[C@@H](CO)C(=O)N[C@@H](C)C(=O)N[C@@H](Cc1c[nH]c2ccccc12)C(=O)O [compound 485] are the same in Degeneracy: 4 for the first, 4 for the second.

Going from CC(C)C[C@H](NC(=O)CNC(=O)[C@H](CCC(N)=O)NC(=O)[C@H](CC(C)C)NC(=O)[C@@H](NC(=O)[C@H](CCCNC(=N)N)NC(=O)[C@H](CS)NC(=O)[C@H](CCC(=O)O)NC(=O)[C@H](CCC(=O)O)NC(=O)[C@@H](N)C(C)C)C(C)C)C(=O)O [compound 487] to CC[C@H](C)[C@H](NC(=O)[C@H](CCC(=O)O)NC(=O)[C@@H](NC(=O)[C@H](CC(C)C)NC(=O)[C@H](CO)NC(=O)[C@H](CCCNC(=N)N)NC(=O)[C@H](CC(C)C)NC(=O)[C@H](CCC(N)=O)NC(=O)[C@H](CC(C)C)NC(=O)[C@H](CCC(=O)O)NC(=O)[C@@H](N)CCCNC(=N)N)[C@@H](C)O)C(=O)N[C@@H](CC(C)C)C(=O)O [compound 501], the Degeneracy falls from 4 to 3.

CC[C@H](C)[C@H](NC(=O)[C@H](CCC(=O)O)NC(=O)[C@@H](N)CCCCN)C(=O)N[C@@H](CC(C)C)C(=O)N[C@@H](CC(=O)O)C(=O)N[C@@H](CCC(=O)O)C(=O)N[C@@H](C)C(=O)N[C@@H](Cc1ccc(O)cc1)C(=O)N[C@H](C(=O)O)C(C)C [compound 489] and CC[C@H](C)[C@H](NC(=O)[C@H](CCC(=O)O)NC(=O)[C@@H](N)CCCCN)C(=O)N[C@@H](CC(C)C)C(=O)N[C@@H](CC(=O)O)C(=O)N[C@@H](CCC(=O)O)C(=O)N[C@@H](C)C(=O)N[C@@H](Cc1ccc(O)cc1)C(=O)N[C@H](C(=O)N[C@@H](CCSC)C(=O)N[C@@H](C)C(=O)O)C(C)C [compound 490] are the same in Degeneracy: 4 for the first, 4 for the second.

CSCC[C@H](NC(=O)[C@@H](NC(=O)[C@H](Cc1ccc(O)cc1)NC(=O)[C@H](C)NC(=O)[C@H](CCC(=O)O)NC(=O)[C@@H](N)CC(=O)O)C(C)C)C(=O)N[C@@H](C)C(=O)NCC(=O)N[C@H](C(=O)NCC(=O)O)C(C)C [compound 491] and CC[C@H](C)[C@H](NC(=O)[C@@H]1CCCN1C(=O)[C@@H](NC(=O)[C@H](CCCCN)NC(=O)CNC(=O)CNC(=O)[C@H](CC(=O)O)NC(=O)[C@H](C)NC(=O)[C@H](Cc1c[nH]cn1)NC(=O)[C@H](Cc1ccc(O)cc1)NC(=O)[C@H](CCC(=O)O)NC(=O)[C@@H](N)[C@@H](C)O)C(C)C)C(=O)O [compound 492] are the same in Degeneracy: 4 for the first, 4 for the second.

CC[C@H](C)[C@H](NC(=O)[C@@H](NC(=O)[C@H](CS)NC(=O)[C@@H](NC(=O)[C@@H]1CCCN1C(=O)[C@@H]1CCCN1C(=O)[C@H](CCC(N)=O)NC(=O)[C@@H]1CCCN1C(=O)[C@H](CC(C)C)NC(=O)[C@H](CCCNC(=N)N)NC(=O)[C@H](CCC(=O)O)NC(=O)CN)[C@@H](C)CC)[C@@H](C)O)C(=O)O [compound 493] and CC(C)C[C@H](NC(=O)[C@@H]1CCCN1C(=O)CNC(=O)[C@H](CCC(=O)O)NC(=O)[C@@H](N)CCCNC(=N)N)C(=O)N1CCC[C@H]1C(=O)N[C@@H](C)C(=O)N[C@@H](C)C(=O)N[C@@H](CCCNC(=N)N)C(=O)N1CCC[C@H]1C(=O)N[C@@H](C)C(=O)O [compound 500] are the same in Degeneracy: 4 for the first, 4 for the second.

CC(C)C[C@H](NC(=O)[C@H](Cc1ccc(O)cc1)NC(=O)[C@H](CCC(=O)O)NC(=O)[C@@H](N)CCC(=O)O)C(=O)N[C@H](C(=O)N1CCC[C@H]1C(=O)N[C@@H](CCC(N)=O)C(=O)N[C@@H](CCC(N)=O)C(=O)NCC(=O)O)C(C)C [compound 495] and CC(C)C[C@H](NC(=O)[C@H](Cc1ccc(O)cc1)NC(=O)[C@H](CCC(=O)O)NC(=O)[C@@H](N)CCC(=O)O)C(=O)N[C@H](C(=O)N1CCC[C@H]1C(=O)N[C@@H](CCC(N)=O)C(=O)N[C@@H](CCC(N)=O)C(=O)NCC(=O)N[C@@H](Cc1ccccc1)C(=O)O)C(C)C [compound 496] are the same in Degeneracy: 4 for the first, 4 for the second.

CC(C)C[C@H](NC(=O)[C@@H]1CCCN1C(=O)[C@H](CO)NC(=O)[C@H](CCCNC(=N)N)NC(=O)[C@@H]1CCCN1C(=O)[C@H](C)NC(=O)[C@H](CCC(=O)O)NC(=O)[C@H](CCC(=O)O)NC(=O)[C@@H](N)CCC(=O)O)C(=O)O [compound 498] and CC(C)C[C@H](NC(=O)[C@@H]1CCCN1C(=O)[C@H](CO)NC(=O)[C@H](CCCNC(=N)N)NC(=O)[C@@H]1CCCN1C(=O)[C@H](C)NC(=O)[C@H](CCC(=O)O)NC(=O)[C@@H](N)CCC(=O)O)C(=O)N[C@@H](C)C(=O)O [compound 499] are the same in Degeneracy: 4 for the first, 4 for the second.

CC(C)C[C@H](NC(=O)[C@H](CO)NC(=O)[C@H](CCC(N)=O)NC(=O)[C@H](CS)NC(=O)[C@H](CC(=O)O)NC(=O)[C@H](CCC(=O)O)NC(=O)[C@H](CO)NC(=O)[C@H](CO)NC(=O)[C@H](CCC(=O)O)NC(=O)CN)C(=O)N[C@H](C(=O)O)[C@@H](C)O [compound 502] and CC(C)C[C@H](NC(=O)[C@H](C)NC(=O)[C@@H]1CCCN1C(=O)[C@H](CS)NC(=O)[C@H](Cc1c[nH]cn1)NC(=O)[C@H](CC(C)C)NC(=O)[C@H](CCC(=O)O)NC(=O)[C@@H](N)CS)C(=O)N[C@H](C(=O)N[C@H](C(=O)O)[C@@H](C)O)C(C)C [compound 505] are the same in Degeneracy: 3 for the first, 3 for the second.

CC(C)C[C@H](NC(=O)[C@H](C)NC(=O)[C@@H]1CCCN1C(=O)[C@H](CS)NC(=O)[C@H](Cc1c[nH]cn1)NC(=O)[C@H](CC(C)C)NC(=O)[C@H](CCC(=O)O)NC(=O)[C@@H](N)CS)C(=O)O [compound 503] and CC(C)C[C@H](NC(=O)[C@H](C)NC(=O)[C@@H]1CCCN1C(=O)[C@H](CS)NC(=O)[C@H](Cc1c[nH]cn1)NC(=O)[C@H](CC(C)C)NC(=O)[C@H](CCC(=O)O)NC(=O)[C@@H](N)CS)C(=O)N[C@H](C(=O)O)C(C)C [compound 504] are the same in Degeneracy: 3 for the first, 3 for the second.

CC(C)C[C@H](NC(=O)[C@H](C)NC(=O)[C@@H]1CCCN1C(=O)[C@H](CS)NC(=O)[C@H](Cc1c[nH]cn1)NC(=O)[C@H](CC(C)C)NC(=O)[C@H](CCC(=O)O)NC(=O)[C@@H](N)CS)C(=O)N[C@H](C(=O)N[C@H](C(=O)N[C@@H](Cc1ccc(O)cc1)C(=O)O)[C@@H](C)O)C(C)C [compound 506] and CSCC[C@H](NC(=O)[C@H](CO)NC(=O)[C@H](CCC(=O)O)NC(=O)[C@@H](N)Cc1ccccc1)C(=O)N1CCC[C@H]1C(=O)N[C@@H](CC(N)=O)C(=O)N1CCC[C@H]1C(=O)N[C@@H](CCC(=O)O)C(=O)NCC(=O)O [compound 507] are the same in Degeneracy: 3 for the first, 3 for the second.

Reference: patent US20060094649A1, “Hla-a1,-a2,-a3,-a24,-b7, and-b44 tumor associated antigen peptides and compositions” (priority 2002, published 2006)
